Data as given in patent EP1211260A1, “Peptides from Ag85 of mycobacterium and uses thereof” (priority 2000, dated 2002).

Target: Recombinant HLA-A*201 (Homo sapiens, UniProt P04439, D140Y/D185E/D98H/E176V/E277Q/G131W/G231S/I119V/I121R/I166T/I218V/L300P/L318F/N151K/N90K/P208A/P217A/Q86G/Q94H/R138H/R169H/T345S)
Experiment: biochemical
Format: binding

Row | SMILES | pIC50
1 | CC(C)C[C@H](NC(=O)[C@H](Cc1ccccc1)NC(=O)[C@@H](NC(=O)[C@H](CCC(=O)O)NC(=O)[C@H](Cc1c[nH]c2ccccc12)NC(=O)[C@H](CCCCN)NC(=O)[C@H](Cc1ccc(O)cc1)NC(=O)[C@@H](NC(=O)[C@@H](N)CCC(N)=O)[C@@H](C)O)[C@@H](C)O)C(=O)O [93-101] | 5.15
2 | CC(C)C[C@H](NC(=O)[C@H](Cc1ccccc1)NC(=O)[C@@H](NC(=O)[C@H](CCC(=O)O)NC(=O)[C@H](Cc1c[nH]c2ccccc12)NC(=O)[C@H](CCCCN)NC(=O)[C@H](Cc1ccc(O)cc1)NC(=O)[C@@H](NC(=O)[C@@H](N)CCC(N)=O)[C@@H](C)O)[C@@H](C)O)C(=O)N[C@H](C(=O)O)[C@@H](C)O [93-102] | 5.40

pIC50: −log10 of the molar value.
